## Ab-91 heavy chain CDR variants: yeast mating affinities

From the AlphaSeq antibody data of Engelhart et al. 2022 (doi:10.1038/s41597-022-01779-4), copy in the FLAb collection.

All variants were tested on one target, the spike HR2 peptide PDVDLGDISGINAS (SARS-CoV-2).

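Phage display of a naive human antibody library on the peptide gave the parent. In library AAYL51, one, two or three CDR residues were substituted; doubles and triples were drawn at random. The scFvs were displayed on barcoded MATa yeast, the peptide on MATalpha yeast. Mating (16 h, 30 °C) was followed by selection of diploids and sequencing of their barcodes. Read counts were normalised to the haploid input and turned into Kd by a linear fit to BCL2-family pairs of known affinity, for each replicate. The assay was run in three technical replicates.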

Each scFv is VL, three GGGGS repeats, VH, as in the parent Ab-91, and differs from it in the CDRs of the heavy chain only.
VL: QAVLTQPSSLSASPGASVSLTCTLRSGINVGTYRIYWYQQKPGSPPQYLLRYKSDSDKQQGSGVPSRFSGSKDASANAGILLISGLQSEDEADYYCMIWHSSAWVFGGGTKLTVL
VH: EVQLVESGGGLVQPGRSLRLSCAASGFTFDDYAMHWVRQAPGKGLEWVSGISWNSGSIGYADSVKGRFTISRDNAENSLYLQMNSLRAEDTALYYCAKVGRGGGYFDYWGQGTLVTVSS

Each variant is given by its three heavy chain CDRs, as the data file delimits them; those of the parent are GFTFDDYAMH, GISWNSGSIGYADSVK, VGRGGGYFDY. Every variant below is changed at I51 of the VH (sequential numbering). Values are apparent Kd, the geometric mean of the replicates that gave a signal; lower means stronger binding. "nd" marks a missing value. The strain was present, yet no cells mated with the target were sequenced in any replicate, which points to weak or no binding.

- GFTFCDYAMH, GRSWNSGSIVYADSVK, VGRGGGYFDY = nd (0 of 3 replicates; controls 0 of 9)
- GFTFDDYAMH, GNSWNSGSVGYGDSVK, VGRGGGYFDY = nd (0 of 3 replicates; controls 1 of 9)
- GFTFDDYAMH, GGSWNFGSIGYADSVK, VGNGGGYFDY = 6.5 µM (1 of 3 replicates; controls 2 of 9)
- GFTFDDYAMH, GRSWNEGSIGYADSVK, VGRGGGYFSY = nd (0 of 3 replicates; controls 4 of 9)
- GFTFDDYAMN, GTSWNSGSIGQADSVK, VGRGGGYFDY = 19 µM (1 of 3 replicates; controls 1 of 9)
- GFTHDDYAMH, GFSWNSGSIGNADSVK, VGRGGGYFDY = 48 µM (1 of 3 replicates; controls 1 of 9)
- GFTFDDYAMH, GCSWNSGSIGYADSVK, VGYGLGYFDY = nd (0 of 3 replicates; controls 2 of 9)
- GFTFDDYAMH, GYSWNSGSIGYADSVK, VTRGGGYFDY = nd (0 of 3 replicates; controls 2 of 9)
- GFTFDDYAMH, GDSWNSGRRGYADSVK, VGRGGGYFDY = 49 µM (2 of 3 replicates; controls 2 of 9)
- GFTFRDYAMH, GASWNSGSIGYADMVK, VGRGGGYFDY = nd (0 of 3 replicates; controls 1 of 9)
- GFTEDDYAMH, GRSWNSGSIGYADSVK, VGRGGGYFDQ = nd (0 of 3 replicates; controls 0 of 9)
- GFCFDDYAMH, GDSWNSGSIGYPDSVK, VGRGGGYFDY = 11 µM (2 of 3 replicates; controls 0 of 9)
- RFTFDDYATH, GNSWNSGSIGYADSVK, VGRGGGYFDY = 34 µM (1 of 3 replicates; controls 1 of 9)
- GFTFDDYAMC, GESWNSGSIGYADSPK, VGRGGGYFDY = 6.6 µM (1 of 3 replicates; controls 4 of 9)
- GFTFDDYAMH, GMSWNSGSIGYAASVK, VGRGGGYFHY = 170 µM (2 of 3 replicates; controls 6 of 9)
- GFTFDDYAMH, GVYWNSGSIGYADSVK, VGRGGGYFDY = nd (0 of 3 replicates; controls 1 of 9)
- GFTFDDYAMH, GQSWNSGSIGYEDSVK, VGRGGGYFDY = nd (0 of 3 replicates; controls 2 of 9)
- GFTFDDYEMH, GGSWNSGSIGYADSVK, VHRGGGYFDY = nd (0 of 3 replicates; controls 2 of 9)
- GFTFDDYAMH, GRSWNWGSIGYADSVK, VGRGGGYFDY = 7.9 µM (1 of 3 replicates; controls 0 of 9)
- GFTFDDYAMH, GMGNNSGSIGYADSVK, VGRGGGYFDY = nd (0 of 3 replicates; controls 0 of 9)
- DFAFDDYAMH, GCSWNSGSIGYADSVK, VGRGGGYFDY = nd (0 of 3 replicates; controls 0 of 9)
- GFTFDDYAMH, GGSWNSGIIGYADSVK, VGRGGGYGDY = 2.1 µM (1 of 3 replicates; controls 0 of 9)
- GFTFDDYAMH, GASWNSGSIEYAYSVK, VGRGGGYFDY = nd (0 of 3 replicates; controls 2 of 9)
- GFTFDDYAMH, GRSWNSGSIGYADRVK, VGRGCGYFDY = nd (0 of 3 replicates; controls 0 of 9)
- GCTFDDYAMH, GLSWNSGSIGYADSVK, VDRGGGYFDY = nd (0 of 3 replicates; controls 2 of 9)
- GFTFDDYAMH, GNSWNSGSIGYADSVA, VGRGGGYFDY = 17 µM (1 of 3 replicates; controls 2 of 9)
- GFTFDDYAMH, GSSWNSGSIGYADSRK, VGRGGGYFDY = nd (0 of 3 replicates; controls 1 of 9)
- GFTFDDYAMH, GKSWNSGSICYLDSVK, VGRGGGYFDY = 310 µM (3 of 3 replicates; controls 2 of 9)
- GFTFDDYAMH, GYSWNSGSIGYADSVK, VGRGGGYFDY = nd (0 of 3 replicates; controls 2 of 9)
- GFTFDDYAMH, GSSWNSGSIGYADSVK, VGRGGGTFDY = 540 µM (1 of 3 replicates; controls 0 of 9)
- GFTFDKYAMH, GESWNSGSIGYADSVK, VGRGGGYFDY = nd (0 of 3 replicates; controls 2 of 9)
- GFTFDDYAMH, GGSWNSGSIGYADSVK, VGRGGGYFDY = 12 µM (2 of 3 replicates; controls 3 of 9)
- GFTFDDYAMH, GFSWNSGSIGVADSVK, VGRGGGYRDY = 120 µM (1 of 3 replicates; controls 1 of 9)
- GFTFEDNAMH, GTSWNSGSIGYADSVK, VGRGGGYFDY = nd (0 of 3 replicates; controls 0 of 9)
- GFTFDDYAMH, GRMWNSGSIGYADSVK, VKRGGGYFDY = nd (0 of 3 replicates; controls 0 of 9)
- GITFDDYAMH, GNSWNSGSIGYADSVK, VGRGGGYFLY = nd (0 of 3 replicates; controls 0 of 9)
- GFTFDDYAMH, GNSWNSGSIGYADSVK, VGRGGGYFDH = 89 µM (2 of 3 replicates; controls 6 of 9)
- GFTFDDYAMH, GNSWNSASIGYADSVK, VGRGGGYFDH = nd (0 of 3 replicates; controls 1 of 9)
- GFTLDDYAPH, GPSWNSGSIGYADSVK, VGRGGGYFDY = 130 µM (3 of 3 replicates; controls 7 of 9)
- GFTFDDYAMH, GQSWNSGRIGYADPVK, VGRGGGYFDY = 420 µM (2 of 3 replicates; controls 3 of 9)
- GFTFDDYAMH, GCSWNSGSVGHADSVK, VGRGGGYFDY = nd (0 of 3 replicates; controls 1 of 9)
- GFTFDGYAMH, GMSWNSGSIGPADSVK, VGRGGGYFDY = nd (0 of 3 replicates; controls 0 of 9)
- GFTFDDYAME, GASWNSWSIGYADSVK, VGRGGGYFDY = 160 µM (2 of 3 replicates; controls 3 of 9)
- GFTFDDYAMH, GFSWNSGSIIYADSVK, LGRGGGYFDY = nd (0 of 3 replicates; controls 1 of 9)

The last 5 entries again:

{"CDR-H1": "GFTFDDYAMH", "CDR-H2": "GQSWNSGRIGYADPVK", "CDR-H3": "VGRGGGYFDY", "Kd": "420 µM", "detected": "2/3", "control signals": "3/9"}
{"CDR-H1": "GFTFDDYAMH", "CDR-H2": "GCSWNSGSVGHADSVK", "CDR-H3": "VGRGGGYFDY", "Kd": "nd", "detected": "0/3", "control signals": "1/9"}
{"CDR-H1": "GFTFDGYAMH", "CDR-H2": "GMSWNSGSIGPADSVK", "CDR-H3": "VGRGGGYFDY", "Kd": "nd", "detected": "0/3", "control signals": "0/9"}
{"CDR-H1": "GFTFDDYAME", "CDR-H2": "GASWNSWSIGYADSVK", "CDR-H3": "VGRGGGYFDY", "Kd": "160 µM", "detected": "2/3", "control signals": "3/9"}
{"CDR-H1": "GFTFDDYAMH", "CDR-H2": "GFSWNSGSIIYADSVK", "CDR-H3": "LGRGGGYFDY", "Kd": "nd", "detected": "0/3", "control signals": "1/9"}

For reference, the parent read 72 nM as the reference entry and 7.5 nM as a member of this library. Nonspecific signal, from three strains lacking the peptide, appeared in 21% of pairings of library AAYL51, centred on 34 µM (5% of these signals below 1.8 µM); values are not corrected for it. The control count says in how many pairings with the empty strains this scFv gave a signal.